{
  "source": "ChEMBL document CHEMBL5120900",
  "about": "“Structure-Based Discovery of a Series of NSD2-PWWP1 Inhibitors” (J Med Chem, 2022)",
  "molecular_target": "T1, Histone-lysine N-methyltransferase NSD3 (Homo sapiens, UniProt Q9BZ95)",
  "T1 sequence (Q9BZ95 whole entry)": "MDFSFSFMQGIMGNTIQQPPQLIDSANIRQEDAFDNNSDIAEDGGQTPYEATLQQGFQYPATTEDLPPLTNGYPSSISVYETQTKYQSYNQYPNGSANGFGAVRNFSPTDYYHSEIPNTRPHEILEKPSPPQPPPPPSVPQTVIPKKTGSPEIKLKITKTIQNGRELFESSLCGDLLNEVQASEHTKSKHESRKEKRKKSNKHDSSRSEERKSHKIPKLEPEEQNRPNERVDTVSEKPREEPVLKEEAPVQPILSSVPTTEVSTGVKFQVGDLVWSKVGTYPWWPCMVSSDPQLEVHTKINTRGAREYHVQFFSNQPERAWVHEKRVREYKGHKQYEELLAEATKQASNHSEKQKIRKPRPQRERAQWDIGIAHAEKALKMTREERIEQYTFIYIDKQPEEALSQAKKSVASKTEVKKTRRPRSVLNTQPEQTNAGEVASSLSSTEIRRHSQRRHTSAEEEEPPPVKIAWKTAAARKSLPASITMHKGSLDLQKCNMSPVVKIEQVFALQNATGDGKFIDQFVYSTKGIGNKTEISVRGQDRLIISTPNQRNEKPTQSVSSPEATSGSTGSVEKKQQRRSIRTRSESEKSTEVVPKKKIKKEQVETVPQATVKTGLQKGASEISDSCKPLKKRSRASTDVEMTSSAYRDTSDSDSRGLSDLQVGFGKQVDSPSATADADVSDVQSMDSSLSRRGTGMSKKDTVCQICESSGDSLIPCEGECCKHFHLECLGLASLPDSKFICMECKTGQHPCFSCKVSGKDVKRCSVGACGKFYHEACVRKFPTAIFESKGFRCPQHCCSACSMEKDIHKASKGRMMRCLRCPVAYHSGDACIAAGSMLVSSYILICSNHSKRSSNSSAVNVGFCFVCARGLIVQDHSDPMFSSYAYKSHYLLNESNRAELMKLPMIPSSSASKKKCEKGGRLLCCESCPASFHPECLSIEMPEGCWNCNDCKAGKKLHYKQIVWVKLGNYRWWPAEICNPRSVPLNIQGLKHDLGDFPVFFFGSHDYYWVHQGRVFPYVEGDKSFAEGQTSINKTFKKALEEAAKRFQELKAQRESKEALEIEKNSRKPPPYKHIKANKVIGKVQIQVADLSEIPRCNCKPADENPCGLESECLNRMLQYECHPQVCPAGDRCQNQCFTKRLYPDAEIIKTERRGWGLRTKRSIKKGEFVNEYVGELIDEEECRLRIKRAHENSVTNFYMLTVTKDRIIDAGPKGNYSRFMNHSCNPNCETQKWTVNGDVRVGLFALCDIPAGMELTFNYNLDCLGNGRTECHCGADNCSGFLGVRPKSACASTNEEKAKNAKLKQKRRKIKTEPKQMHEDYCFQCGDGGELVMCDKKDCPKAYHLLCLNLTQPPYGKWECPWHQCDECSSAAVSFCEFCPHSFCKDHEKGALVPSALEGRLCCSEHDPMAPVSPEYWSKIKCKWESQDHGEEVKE",
  "assay": "Inhibition of GST-tagged NSD3-PWWP1 domain (247 to 398 residues) (unknown origin) by TR-FRET assay",
  "data": [
    {"molecule": "Cc1cc(CN)cc(C)c1-c1ncn(C)c1-c1ccnc2cc(F)ccc12", "values": [
      {"measurement": "IC50", "result": 200, "unit": "nM"}
    ]}
  ]
}
